ChEMBL document CHEMBL5444388, “Affinity Phenotypic Cellular Literature for EUbOPEN Chemogenomic Library” (2024)

Amino acid sequences for entries named in this document (tags omitted). Residues count along the entry.
UniProt P15056, 2-766 V600E limits assumed: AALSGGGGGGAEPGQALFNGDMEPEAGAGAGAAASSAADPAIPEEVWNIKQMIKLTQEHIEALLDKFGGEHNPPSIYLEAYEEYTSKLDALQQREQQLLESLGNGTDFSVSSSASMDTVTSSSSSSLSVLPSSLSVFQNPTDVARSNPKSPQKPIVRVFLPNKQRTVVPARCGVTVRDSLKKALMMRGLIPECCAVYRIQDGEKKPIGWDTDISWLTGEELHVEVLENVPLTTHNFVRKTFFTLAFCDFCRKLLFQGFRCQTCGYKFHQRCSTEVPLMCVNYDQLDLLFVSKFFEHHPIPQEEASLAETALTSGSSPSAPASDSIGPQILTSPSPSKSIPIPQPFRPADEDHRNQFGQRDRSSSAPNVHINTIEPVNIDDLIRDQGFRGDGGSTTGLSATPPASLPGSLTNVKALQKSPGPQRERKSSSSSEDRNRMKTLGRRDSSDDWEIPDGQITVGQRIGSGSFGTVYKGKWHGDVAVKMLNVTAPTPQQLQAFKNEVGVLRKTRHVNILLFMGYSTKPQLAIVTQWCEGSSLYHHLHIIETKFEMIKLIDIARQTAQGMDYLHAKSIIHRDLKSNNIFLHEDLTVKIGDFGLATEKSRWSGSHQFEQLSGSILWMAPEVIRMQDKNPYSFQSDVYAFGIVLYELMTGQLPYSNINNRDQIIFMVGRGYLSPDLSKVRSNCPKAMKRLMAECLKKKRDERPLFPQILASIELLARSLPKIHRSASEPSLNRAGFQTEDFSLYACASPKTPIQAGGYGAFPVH
UniProt P15056, whole entry: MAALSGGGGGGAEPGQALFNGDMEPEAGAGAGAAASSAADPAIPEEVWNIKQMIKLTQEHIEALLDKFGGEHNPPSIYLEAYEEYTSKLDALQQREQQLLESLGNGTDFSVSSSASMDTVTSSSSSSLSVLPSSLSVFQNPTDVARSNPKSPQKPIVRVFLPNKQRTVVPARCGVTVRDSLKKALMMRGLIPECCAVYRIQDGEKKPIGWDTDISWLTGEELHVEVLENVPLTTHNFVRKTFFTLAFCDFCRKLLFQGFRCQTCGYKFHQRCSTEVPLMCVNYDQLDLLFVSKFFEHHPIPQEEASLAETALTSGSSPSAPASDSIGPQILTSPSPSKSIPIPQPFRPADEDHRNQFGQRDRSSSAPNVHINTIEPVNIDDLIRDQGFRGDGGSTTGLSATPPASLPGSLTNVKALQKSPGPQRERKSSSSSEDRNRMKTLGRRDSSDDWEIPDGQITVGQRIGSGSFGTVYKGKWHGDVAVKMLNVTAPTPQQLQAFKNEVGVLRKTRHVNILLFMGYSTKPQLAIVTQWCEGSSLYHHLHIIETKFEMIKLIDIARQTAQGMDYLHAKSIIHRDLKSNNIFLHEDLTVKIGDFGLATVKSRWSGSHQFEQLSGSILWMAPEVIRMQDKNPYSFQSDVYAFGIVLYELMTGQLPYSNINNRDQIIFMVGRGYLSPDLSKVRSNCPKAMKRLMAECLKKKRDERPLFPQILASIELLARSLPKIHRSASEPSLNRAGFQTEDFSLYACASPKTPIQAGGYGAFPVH

How the values were obtained:
[1] = biological target: T1, Serine/threonine-protein kinase B-raf (Homo sapiens, UniProt P15056, V600E)
[2] = biological target: T2, Serine/threonine-protein kinase B-raf (Homo sapiens, UniProt P15056)
[3] = biological target: T1, Serine/threonine-protein kinase B-raf; remark: listed apart in the source
[4] = biological target: T1, Serine/threonine-protein kinase B-raf; remark: listed apart in the source
[5] = biological target: T2, Serine/threonine-protein kinase B-raf; remark: listed apart in the source
[6] = biological target: T1, Serine/threonine-protein kinase B-raf; remark: listed apart in the source
[7] = biological target: T2, Serine/threonine-protein kinase B-raf; remark: listed apart in the source
[8] = biological target: T2, Serine/threonine-protein kinase B-raf; remark: listed apart in the source
[9] = biological target: T2, Serine/threonine-protein kinase B-raf; remark: listed apart in the source

CN(C)CCOc1ccc(-c2nc(-c3ccncc3)c(-c3ccc4c(c3)CC/C4=N\O)[nH]2)cc1 [SB590885]
IC50 [1]: 0.19 µM
IC50 [2]: 11 µM
IC50 [3]: 0.058 µM
IC50 [4]: 0.058 µM
IC50 [5]: 1.1 µM
IC50 [6]: 0.028 µM
IC50 [7]: 6.1 µM
IC50 [8]: 5.1 µM
IC50 [9]: 1.5 µM
